Experimental data taken from patent publication US20250304717A1, “CAMPTOTHECIN DERIVATIVE AND LIGAND-DRUG CONJUGATE” (HAINAN SIMCERE ZAIMING PHARMACEUTICAL CO., LTD., priority 2022, published 2025).
Read-outs that look alike come from different tables or passages of the source.

Tests used:
[1] = 37° C., 100 μg/mL
Method: ADC molecules (final concentration: 100 μg/mL) were separately incubated with human plasma (Oribiotech, PB021-C) and monkey plasma (Shinuoda Bio, SND-X0107) in an incubator at 37° C. The day of incubation was defined as day 0. Samples were taken on days 7, 14 and 28 and tested for the free small molecule.
300 μL of an internal standard working solution (acetonitrile preparation) was added to 20 μL of the sample, and the mixture was vortexed for mixing for 5 min and centrifuged for 5 min (14000 rpm). 4 μL of the supernatant was analyzed by LC-MS/MS (API 6500+).

[2] = system: OVCAR3 subcutaneous tumor model; test: Efficacy in OVCAR3 subcutaneous tumor model-1; type: in vivo, Balb/c nude mice
Source text: Experimental reagent: Human ovarian cancer OVCAR3 cells were purchased from ATCC, RPMI-1640 medium was purchased from Gibco (Cat. No. A104910), fetal bovine serum was purchased from Excell (Cat. No. FND500), penicillin-streptomycin was purchased from Gibco (Cat. No. 15140122), bovine insulin was purchased from Yeasen (Cat. No. 40107ES60), 0.25% trypsin-EDTA was purchased from Gibco (Cat. No. 25200-072), D-PBS (phosphate-buffered saline without calcium and magnesium ions) was purchased from Hyclone (Cat. No. SH30256.01), and Matrigel was purchased from Corning (Cat. No. 356237).
Animal information: Balb/c nude mice, female, 5-6 weeks, weight about 14-20 g, purchased from Beijing Vital River Biotechnology Co., Ltd. The mice were bred in SPF-rated environment with air exhaust for each cage individually. All animals had free access to standard certified commercial laboratory diets and water.
Cell culture: The human ovarian cancer OVCAR3 cell strain was cultured in vitro under the conditions of RPMI-1640 added with 20% fetal bovine serum, 1% penicillin-streptomycin, and […] bovine insulin, and an incubator at 37° C. with 5% CO2. The cells were digested with a 0.25% trypsin-EDTA digestive solution once a week for passaging as per conventional practice. When the cell saturation was 80%-90% and a required amount was achieved, the cells were collected and counted.
Cell inoculation: 0.1 mL of OVCAR3 cell suspension (containing 1×10^7 cells, RPMI-1640: Matrigel, volume ratio 1:1) was inoculated subcutaneously into the axilla of each mouse. On day 26 after inoculation of the cells, the mice were randomly grouped and administrated based on tumor volume.
The day when random grouping was performed was day 0.
Tumor diameters were measured twice weekly using a vernier caliper. The tumor volume was calculated using the following formula: V=0.5a×b^2, where a and b represent the long diameter and short diameter of the tumor, respectively. Mouse body weight was measured twice weekly.

PA-1 cells = test: Anti-tumor cell proliferation activity of anti-CDH6-ADC, PA-1; type: cell-based, human; settings: 5 days
Source text: (§1) Cell and material: The human ovarian cancer cell line OVCAR3 (CDH6 high-expression cell strain) was purchased from ATCC, the human ovarian teratoma cell line PA-1 was purchased from ATCC, bovine serum, 1640 medium (Gibco #A10491-01), MEM medium (Gibco #11095-080), MEM NEAA (Gibco #11140-050), sodium pyruvate (Gibco #11360-070), penicillin-streptomycin, and 0.25% Trypsin-EDTA (Gibco #25200-056) were purchased from Gibco, bovine insulin was purchased from Solarbio, 96 well plates were purchased from Corning (U.S.), and Cell-Titer Glo reagent was purchased from Promega (U.S.). […]
(§2) Cell proliferation activity test: The Cell-Titer Glo reagent was used to test ADC for inhibitory activity on proliferation of both OVCAR3 and PA-1 cell strains. […] After the ADC solution to be detected was added (the ADC was diluted with the medium for the corresponding cells described above, the ADC concentration was adjusted to 100 nM, then the medium was continuously and serially diluted 3-fold to give a total of 8 concentrations, and 10 μL of the prepared ADC solution was transferred to the 96-well plate so that the final concentration was 0-10 nM), the mixture was incubated at 37° C. with 5% CO2. […] The Cell-Titer Glo reagent was added and the cell activity was measured. […]
(§3) Data analysis: % Inhibition was calculated, and compound IC50 was fitted. […]

OVCAR3 cells = test: Anti-tumor cell proliferation activity of anti-CDH6-ADC, OVCAR3; type: cell-based, human; settings: 5 days
Source text: as §1, §2, §3

[3] = Table 24, Day 27, 3 mg/kg, single intravenous injection

B1: ADC-L1-19-P1-5 (conjugate)
heavy: EVQLVQSGAEVKKPGASVKVSCKASGYTFTDNYINWVRQAPGQRLEWMGWIYPGTGNSYYNEKFKGRVTITVDTSASTAYMELSSLRSEDTAVYLCASSYGDSFDYWGQGTTVTVSSASTKGPSVFPLAPSSKSTSGGTAALGCLVKDYFPEPVTVSWNSGALTSGVHTFPAVLQSSGLYSLSSVVTVPSSSLGTQTYICNVNHKPSNTKVDKKV[human IgG1 Fc omitted]
light: DIVMTQSPDSLAVSLGERATINCRASQDIRNYLNWYQQKPGQTPKLLISYTSRLHSGVPDRFSGSGSGTDFTLTISSLQAEDVAVYYCQQYSQLPWTFGGGTKVEIKRTVAAPSVFIFPPSDEQLKSGTASVVCLLNNFYPREAKVQWKVDNALQSGNSQESVTEQDSKDSTYSLSSTLTLSKADYEKHKVYACEVTHQGLSSPVTKSFNRGEC
- Free small molecule % ([1]; Human plasma, incubation 7 days): 0.32%
- Free small molecule % ([1]; Human plasma, incubation 14 days): 0.54%
- Free small molecule % ([1]; Human plasma, incubation 28 days): 0.99%
- Free small molecule % ([1]; Monkey plasma, incubation 7 days): 0.34%
- Free small molecule % ([1]; Monkey plasma, incubation 14 days): 0.75%
- Free small molecule % ([1]; Monkey plasma, incubation 28 days): 1.53%
- Mean tumor volume (mm^3) Day 0 ([2]; Table 24, Day 0, 3 mg/kg, single intravenous injection): 153.4 mm^3
- Mean tumor volume (mm^3) Day 5 ([2]; Table 24, Day 5, 3 mg/kg, single intravenous injection): 165.0 mm^3
- Mean tumor volume (mm^3) Day 8 ([2]; Table 24, Day 8, 3 mg/kg, single intravenous injection): 149.3 mm^3
- Mean tumor volume (mm^3) Day 12 ([2]; Table 24, Day 12, 3 mg/kg, single intravenous injection): 97.3 mm^3
- Mean tumor volume (mm^3) Day 16 ([2]; Table 24, Day 16, 3 mg/kg, single intravenous injection): 68.7 mm^3
- Mean tumor volume (mm^3) Day 19 ([2]; Table 24, Day 19, 3 mg/kg, single intravenous injection): 56.6 mm^3
- Mean tumor volume (mm^3) Day 22 ([2]; Table 24, Day 22, 3 mg/kg, single intravenous injection): 49.4 mm^3
- Mean tumor volume (mm^3) Day 27 [2, 3]: 27.3 mm^3
- TG (%) Day 27 [2, 3]: 135.5%
- inhibitory effect on tumor growth (in words) ([2]; single intravenous administration at 3 mg/kg, P<0.0001): significant inhibitory effect on tumor growth
- IC50 (PA-1 cells): 0.018 nM
- IC50 (OVCAR3 cells): 0.019 nM

B2: ADC-L1-19-5 (conjugate)
heavy: B1 heavy
light: B1 light
- IC50 (PA-1 cells): 0.017 nM
- IC50 (OVCAR3 cells): 0.021 nM
